Experimental data from patent US20100273780A1, “SUBSTITUTED 8-HETEROARYL XANTHINES” (PGXHEALTH, LLC, priority 2003, published 2010).

Biological target: T1, rat A2B receptors (rA2B) (Rattus norvegicus, UniProt P29276)
T1 construct: expressed in transfected cells; host or cells: HEK-293 cells, stably transfected (G418 selection); membranes
T1 sequence (P29276 1-332): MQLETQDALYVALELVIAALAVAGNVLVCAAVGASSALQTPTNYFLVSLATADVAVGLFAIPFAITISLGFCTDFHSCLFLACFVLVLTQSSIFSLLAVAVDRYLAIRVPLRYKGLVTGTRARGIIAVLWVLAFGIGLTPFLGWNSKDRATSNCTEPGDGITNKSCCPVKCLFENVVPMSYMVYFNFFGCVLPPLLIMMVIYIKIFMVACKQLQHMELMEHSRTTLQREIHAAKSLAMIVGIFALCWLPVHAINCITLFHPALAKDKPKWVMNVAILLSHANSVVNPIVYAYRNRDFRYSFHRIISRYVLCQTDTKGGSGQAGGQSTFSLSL
Assay: Radioligand competition binding (125I-ABOPX) at rat A2B receptors in HEK-293 membranes
Settings: displacement of specific [125I]ABOPX binding at rat A2B receptors expressed in HEK-293 cells; read-out: RatA2B Ki
Description: The plasmid was amplified in competent JM109 cells and plasmid DNA isolated using Wizard Megaprep columns (Promega Corporation, Madison, Wis.).
Transfected HEK cells were grown under 5% CO2/[…] humidified atmosphere at a temperature of 37° C. Colonies were selected by growth of cells in 0.6 mg/mL G418. Transfected cells were maintained in DMEM supplemented with Hams F12 nutrient mixture (1/1), 10% newborn calf serum, 2 mM glutamine and containing 50 IU/mL penicillin, […], and 0.2 mg/mL Geneticin (G418, Boehringer Mannheim). Cells were cultured in 10 cm diameter round plates and subcultured when grown confluent (approximately after 72 hours).
At A2B receptors: Confluent monolayers of HEK-A2B cells were washed with PBS followed by ice cold Buffer A (10 mM HEPES, 10 mM EDTA, pH 7.4) with protease inhibitors (10 μg/mL benzamidine, 100 μM phenylmethanesulfonyl fluoride, and 2 μg/mL of each aprotinin, pepstatin and leupeptin). The cells were homogenized in a Polytron (Brinkmann) for 20 s, centrifuged at 30,000×g, and the pellets washed twice with buffer HE (10 mM HEPES, 1 mM EDTA, pH 7.4 with protease inhibitors). The final pellet was resuspended in buffer HE, supplemented with 10% sucrose and frozen in aliquots at −80° C. For binding assays membranes were thawed and diluted 5-10 fold with HE to a final protein concentration of approximately 1 mg/mL. To determine protein concentrations, membranes, and bovine serum albumin standards were dissolved in 0.2% NaOH/0.01% SDS and protein determined using fluorescamine fluorescence. Stowell, C.
After incubation, 20 minutes at room temperature, 50 μL, of 10 mg/mL Na-metabisulfite in water was added to quench the reaction. […]
Radioligand binding experiments were performed in triplicate with 20-25 μg membrane protein in a total volume of 0.1 mL HE buffer supplemented with 1 U/mL adenosine deaminase and 5 mM MgCl2. […] Nonspecific binding was measured in the presence of 100 μM NECA. […] Bmax and KD values were calculated by Marquardt's nonlinear least squares interpolation for single a site binding models. […]

Substance	Ki [nM]
1,3-Diethyl-8-[6-[N-nicotinoylmethylamino]-3-pyridyl)xanthine [Compound 64]	< 500
1,3-Dipropyl-8-[6-[N-nicotinoylmethylamino]-3-pyridyl)xanthine [Compound 47]	< 500
1-Propargyl, 3-methyl-8-[6-[N-nicotinoylmethylamino]-3-pyridyl)xanthine [Compound 101]	< 500
